{"source": "paper PMC5537869", "about": "“Role of Zucchini and Its Distinctive Components in the Modulation of Degenerative Processes: Genotoxicity, Anti-Genotoxicity, Cytotoxicity and Apoptotic Effects” (Nutrients, 2017)", "system": "HL60 cells", "assay": "Cytotoxicity assay, trypan blue exclusion", "procedure": "Therefore, all the cells that exclude the dye are viable. Non-viable cells stained purple-violet, whereas viable ones remained unstained. Trypan blue was added to cell cultures at a 1:1 ratio, and 20 μL of cell suspension was loaded into a Neubauer chamber. The cells were counted under an inverted microscope at 100× magnification. […] Curves are expressed as survival percentage with respect to controls growing at 72 h. All data represent the average of at least three independent experiments."}
{"smiles": "CC1=C(/C=C/C(C)=C/C=C/C(C)=C/C=C/C=C(C)/C=C/C=C(C)/C=C/C2=C(C)CCCC2(C)C)C(C)(C)CCC1", "note": "[β-carotene]", "values": [{"measurement": "cytotoxicity", "setting": "HL60, 0.5 μM", "result": "did not show cytotoxicity"}, {"measurement": "cytotoxic effect (tumoral viability)", "setting": "HL60, 72 h, trypan blue exclusion, at the tested concentrations", "result": "slight cytotoxic activities"}]}
